# The list shows a part of the results, in another mix than the full data. Inconclusive results are not listed. Active and inactive are the calls of the source. Unless noted, calls follow the shape of the dose curve; as a rule, active = well fitted curve in the direction sought with a large enough effect; inconclusive = small, poorly fitted or top-dose-only effect, or another doubt; inactive = no such curve, though single readings can be large; an effect the other way counts as inactive or inconclusive.
# The chains behind the UniProt entries cited, without tags or fusion partners.
# UniProt P10635, whole entry, looked up: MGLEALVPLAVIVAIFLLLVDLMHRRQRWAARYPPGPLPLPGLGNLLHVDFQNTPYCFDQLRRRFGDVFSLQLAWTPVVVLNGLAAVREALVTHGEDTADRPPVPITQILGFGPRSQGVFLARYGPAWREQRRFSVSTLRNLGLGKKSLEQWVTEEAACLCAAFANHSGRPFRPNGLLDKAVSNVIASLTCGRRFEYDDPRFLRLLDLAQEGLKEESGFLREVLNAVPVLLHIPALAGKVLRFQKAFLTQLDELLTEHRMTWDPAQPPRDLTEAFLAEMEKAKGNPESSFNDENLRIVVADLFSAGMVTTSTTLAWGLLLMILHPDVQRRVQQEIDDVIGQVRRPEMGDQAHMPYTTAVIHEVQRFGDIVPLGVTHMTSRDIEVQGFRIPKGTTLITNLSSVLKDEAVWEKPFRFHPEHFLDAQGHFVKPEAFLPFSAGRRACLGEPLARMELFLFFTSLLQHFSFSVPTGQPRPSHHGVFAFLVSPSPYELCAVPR
# UniProt P08684, whole entry, looked up: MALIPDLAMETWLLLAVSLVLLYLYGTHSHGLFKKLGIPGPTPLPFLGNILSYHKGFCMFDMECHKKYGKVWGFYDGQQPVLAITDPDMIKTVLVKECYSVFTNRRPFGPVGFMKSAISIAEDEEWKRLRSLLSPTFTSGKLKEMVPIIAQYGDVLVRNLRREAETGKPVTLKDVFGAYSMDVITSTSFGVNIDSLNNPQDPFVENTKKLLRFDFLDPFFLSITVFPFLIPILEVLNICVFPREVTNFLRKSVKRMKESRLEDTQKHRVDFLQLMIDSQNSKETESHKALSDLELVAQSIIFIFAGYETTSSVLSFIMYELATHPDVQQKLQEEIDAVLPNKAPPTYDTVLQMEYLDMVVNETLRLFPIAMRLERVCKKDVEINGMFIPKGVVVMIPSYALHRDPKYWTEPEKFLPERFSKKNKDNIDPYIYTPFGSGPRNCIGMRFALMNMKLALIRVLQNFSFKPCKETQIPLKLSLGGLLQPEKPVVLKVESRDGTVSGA
# UniProt P11712, whole entry, looked up: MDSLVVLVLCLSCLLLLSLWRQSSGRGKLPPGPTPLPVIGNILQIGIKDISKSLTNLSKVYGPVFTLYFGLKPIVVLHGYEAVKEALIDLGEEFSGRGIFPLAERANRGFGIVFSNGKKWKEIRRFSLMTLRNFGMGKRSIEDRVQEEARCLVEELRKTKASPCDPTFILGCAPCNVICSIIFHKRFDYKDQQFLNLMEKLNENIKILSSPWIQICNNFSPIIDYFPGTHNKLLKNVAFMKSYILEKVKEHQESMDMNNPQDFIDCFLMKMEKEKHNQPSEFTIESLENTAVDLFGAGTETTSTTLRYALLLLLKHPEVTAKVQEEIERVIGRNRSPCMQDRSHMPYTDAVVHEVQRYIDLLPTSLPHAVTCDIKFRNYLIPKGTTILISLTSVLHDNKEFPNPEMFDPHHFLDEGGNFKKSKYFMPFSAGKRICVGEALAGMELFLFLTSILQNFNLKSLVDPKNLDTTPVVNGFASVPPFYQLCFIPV
# Legend:
# [1] = target: Cytochrome P450 2D6 (Homo sapiens) (UniProt P10635); test: Cytochrome P450 family 2 subfamily D member 6 (CYP2D6) small molecule antagonists: luciferase biochemical (cell-free) qHTS assay (AID 1645840; active = well fitted curve in the direction sought with a large enough effect in the repeat runs; an effect the other way counts as inactive or inconclusive; also: potency is read from the fitted curve at half-maximal effect; nearly all actives have a fitted effect of over 55% in size)
# Outline: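 P450-Glo luminescent screen: recombinant CYP2D6 enzyme–proluciferin substrate mix preincubated with compound 10 min at room temperature, then NADPH regeneration added for 1 h at room temperature. Detection reagent added for 20 min; luciferin light read as relative luminescence units.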
# [2] = target: Cytochrome P450 3A4 (Homo sapiens) (UniProt P08684); test: Cytochrome P450 family 3 subfamily A member 4 (CYP3A4) small molecule antagonists: luciferase qHTS assay (AID 1645841; active = well fitted curve in the direction sought with a large enough effect in the repeat runs; an effect the other way counts as inactive or inconclusive; also: potency is read from the fitted curve at half-maximal effect; nearly all actives have a fitted effect of over 45% in size)
# [3] = target: Cytochrome P450 2C9 (Homo sapiens) (UniProt P11712); test: Cytochrome P450 family 2 subfamily C member 9 (CYP2C9) small molecule antagonists: luciferase qHTS assay (AID 1645842; active = well fitted curve in the direction sought with a large enough effect in the repeat runs; an effect the other way counts as inactive or inconclusive; also: % is scaled to controls: 0 for no effect and ±100 for the full control effect; nearly all actives have a fitted effect of over 55% in size); details: P450-Glo CYP2C9 enzyme assay, luciferin luminescence; at 57.4 µM (top of the series) unless noted
# Outline: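 Luminescence, after 20 min with luciferin detection reagent, reflected CYP2C9 turnover during a 1 h NADPH-driven reaction at 37C. Enzyme-substrate mix contained 0.4% bovine serum albumin and was preincubated with compound 10 min at room temperature.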
# [4] = Primary qHTS for inhibitors of nuclear receptor binding SET domain protein 2 (NSD2) in an isogenic RCH-ACV NSD2 p.E1099K mutant (9B) (AID 1645876); also: % is scaled to controls: 0 for no effect and ±100 for the full control effect; nearly all actives have a fitted effect of over 70% in size
# [5] = Primary qHTS for inhibitors of nuclear receptor binding SET domain protein 2 (NSD2) in an RCH-ACV wild type WT cells (2C) (AID 1645877); also: % is scaled to controls: 0 for no effect and ±100 for the full control effect; nearly all actives have a fitted effect of over 70% in size
# [6] = test system: CRL-7250; test: Cytotoxic Profiling of Annotated Libraries Using Quantitative High-Throughput Screening (AID 1296008); details: Five cell lines viability, CellTiter-Glo ATP luminescence, 48-72 h; active compounds read low; also: nearly all actives have a fitted effect of over 60% in size; as to max response: % is scaled to controls: 0 for no effect and ±100 for the full control effect
# [7] = test system: HEK293; test: as above; details: Five cell lines viability, CellTiter-Glo ATP luminescence, 48-72 h; max response: active compounds read low
# [8] = test system: HaCat; test: as above; details: Five cell lines viability, CellTiter-Glo ATP luminescence, 48-72 h; active compounds read low
# [9] = test system: NIH3T3; test: as above; details: Five cell lines viability, CellTiter-Glo ATP luminescence, 48-72 h; active compounds read low
# [10] = test system: MCC-13; test: qHTS assay to identify novel small-molecules to repurpose for Merkel cell carcinoma treatment (AID 1296009); details: MCC and control cell lines, CellTiter-Glo viability, 72 h; at 46 µM (top of the series) unless noted; also: nearly all actives have a fitted effect of over 60% in size; as to activity change, negative = cytotoxicity: % is scaled to controls: 0 for no effect and ±100 for the full control effect
# [11] = test system: MCC-26; test: as above; details: MCC and control cell lines, CellTiter-Glo viability, 72 h; at 46 µM (top of the series) unless noted
# [12] = test system: MKL-1; test: as above; details: MCC and control cell lines, CellTiter-Glo viability, 72 h; at 46 µM (top of the series) unless noted
# [13] = test system: MKL-2; test: as above; details: MCC and control cell lines, CellTiter-Glo viability, 72 h; at 46 µM (top of the series) unless noted
# [14] = test system: NIH3T3; test: as above; details: MCC and control cell lines, CellTiter-Glo viability, 72 h; at 44.8 µM (top of the series)
# [15] = test system: UISO; test: as above; details: MCC and control cell lines, CellTiter-Glo viability, 72 h; at 46 µM (top of the series)
# [16] = test system: WaGa; test: as above; details: MCC and control cell lines, CellTiter-Glo viability, 72 h; at 46 µM (top of the series) unless noted
# [17] = test system: C33A; test: Primary qHTS to identify gynecologic anti-cancer compounds using libraries of approved drugs and bioactive compounds (AID 1345084); details: Gynecologic cancer cell panel viability, ATPlite luminescence, 48 h; at 57.5 µM (top of the series) unless noted; also: % is scaled to controls: 0 for no effect and ±100 for the full control effect; nearly all actives have a fitted effect of over 55% in size
# Outline: (§1)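 Cells, 1,000 per well, were allowed to settle for 16 h at 37 C before compound addition. Five concentrations were tested for 48 h, and viability was read by ATPlite luminescence after 15 min at room temperature.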
# [18] = test system: CAOV3; test: as above; details: Gynecologic cancer cell panel viability, ATPlite luminescence, 48 h; at 57.5 µM (top of the series) unless noted
# Outline: as §1
# [19] = test system: CASKI; test: as above; details: Gynecologic cancer cell panel viability, ATPlite luminescence, 48 h; at 57.5 µM (top of the series) unless noted
# Outline: as §1
# [20] = test system: Es-2; test: as above; details: Gynecologic cancer cell panel viability, ATPlite luminescence, 48 h; at 57.5 µM (top of the series) unless noted
# Outline: as §1
# [21] = test system: HeLa; test: as above; details: Gynecologic cancer cell panel viability, ATPlite luminescence, 48 h; at 57.5 µM (top of the series) unless noted
# Outline: as §1
# [22] = test system: JEG-3; test: as above; details: Gynecologic cancer cell panel viability, ATPlite luminescence, 48 h; at 57.5 µM (top of the series) unless noted
# Outline: as §1
# [23] = test system: OV90; test: as above; details: Gynecologic cancer cell panel viability, ATPlite luminescence, 48 h; at 57.5 µM (top of the series) unless noted
# Outline: as §1
# [24] = test system: PA-1; test: as above; details: Gynecologic cancer cell panel viability, ATPlite luminescence, 48 h; at 57.5 µM (top of the series) unless noted
# Outline: as §1
# [25] = test system: Tov-21-G; test: as above; details: Gynecologic cancer cell panel viability, ATPlite luminescence, 48 h; at 57.5 µM (top of the series) unless noted
# Outline: as §1
# [26] = test system: Tov112D; test: as above; details: Gynecologic cancer cell panel viability, ATPlite luminescence, 48 h; at 57.5 µM (top of the series) unless noted
# Outline: as §1
smiles,measurement,setting,value
CN(C(=O)Cc1ccc(Cl)c(Cl)c1)[C@H]1CC[C@@]2(CCCO2)C[C@@H]1N1CCCC1,Potency,[1],active: 1100 nM
same,Potency,[2],active: 3470 nM
same,"activity change, negative = inhibition",[3],inactive: 4.37%
same,Potency,[4],inactive
same,Potency,[5],inactive
same,max response,[6],inactive: 1.91%
same,max response,[7],inactive: 1.41%
same,max response,[8],inactive: -1.16%
same,outcome,[9],inactive
same,"activity change, negative = cytotoxicity",[10],inactive: 12.8%
same,"activity change, negative = cytotoxicity",[11],inactive: -3.68%
same,"activity change, negative = cytotoxicity",[12],inactive: -0.196%
same,"activity change, negative = cytotoxicity",[13],inactive: 10.6%
same,outcome,[14],inactive
same,"activity change, negative = cytotoxicity",[15],inactive: 4.19%
same,"activity change, negative = cytotoxicity",[16],inactive: 9.59%
same,"activity change, negative = cytotoxicity",[17],inactive: 6.13%
same,"activity change, negative = cytotoxicity",[18],inactive: -1.12%
same,"activity change, negative = cytotoxicity",[19],inactive: 2.2%
same,"activity change, negative = cytotoxicity",[20],inactive: 13.3%
same,"activity change, negative = cytotoxicity",[21],inactive: 1.49%
same,"activity change, negative = cytotoxicity",[22],inactive: 2.38%
same,"activity change, negative = cytotoxicity",[23],inactive: 0.189%
same,"activity change, negative = cytotoxicity",[24],inactive: 14.4%
same,"activity change, negative = cytotoxicity",[25],inactive: 0.251%
same,"activity change, negative = cytotoxicity",[26],inactive: 0.195%

# Source: PubChem BioAssay (NCATS)
